According to ChEMBL document CHEMBL5537191, “Rebamipide and Derivatives are Potent, Selective Inhibitors of Histidine Phosphatase Activity of the Suppressor of T Cell Receptor Signaling Proteins” (J Med Chem, 2024):
Activity calls are given as the source filed them.

Amino acid sequences for entries named in this document (tags omitted). A change or cut given only in a name is not applied to a line headed by its entry.
UniProt P29350: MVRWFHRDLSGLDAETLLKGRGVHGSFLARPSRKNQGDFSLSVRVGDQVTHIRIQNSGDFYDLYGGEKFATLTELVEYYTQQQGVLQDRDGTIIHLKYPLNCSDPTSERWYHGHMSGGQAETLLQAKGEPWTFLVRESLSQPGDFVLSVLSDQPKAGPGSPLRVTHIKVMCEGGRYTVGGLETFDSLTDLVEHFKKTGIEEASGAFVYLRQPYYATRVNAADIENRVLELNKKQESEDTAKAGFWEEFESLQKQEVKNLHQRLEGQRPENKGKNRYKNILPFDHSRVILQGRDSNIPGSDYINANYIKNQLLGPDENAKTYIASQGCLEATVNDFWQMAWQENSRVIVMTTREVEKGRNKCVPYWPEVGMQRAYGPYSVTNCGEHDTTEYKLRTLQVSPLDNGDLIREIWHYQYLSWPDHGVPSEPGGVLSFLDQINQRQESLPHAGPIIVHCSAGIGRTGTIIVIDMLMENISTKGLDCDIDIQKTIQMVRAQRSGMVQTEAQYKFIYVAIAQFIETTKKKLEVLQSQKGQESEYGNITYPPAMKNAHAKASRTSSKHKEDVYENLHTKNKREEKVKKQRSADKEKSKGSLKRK

Columns and labels:
[1] = target: T1, Tyrosine-protein phosphatase non-receptor type 1 (Homo sapiens) (UniProt P18031); test: (§1) Inhibition of recombinant human PTP-1B (1 to 321 residues) phosphatase activity expressed in Escherichia coli incubated for 20 mins by spectrophotometric analysis
T1 sequence (whole entry): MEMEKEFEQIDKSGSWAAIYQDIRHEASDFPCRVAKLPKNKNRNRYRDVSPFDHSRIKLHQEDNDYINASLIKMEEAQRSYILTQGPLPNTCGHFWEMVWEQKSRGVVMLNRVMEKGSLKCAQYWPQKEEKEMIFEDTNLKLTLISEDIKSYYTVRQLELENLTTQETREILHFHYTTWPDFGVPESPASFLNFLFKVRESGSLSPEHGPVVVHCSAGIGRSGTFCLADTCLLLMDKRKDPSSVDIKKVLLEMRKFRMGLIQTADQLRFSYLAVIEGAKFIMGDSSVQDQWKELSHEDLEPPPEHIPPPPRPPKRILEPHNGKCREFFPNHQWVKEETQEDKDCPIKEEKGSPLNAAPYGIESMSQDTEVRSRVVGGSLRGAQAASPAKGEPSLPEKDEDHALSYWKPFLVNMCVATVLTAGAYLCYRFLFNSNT

[2] = target: Tyrosine-protein phosphatase non-receptor type 6 (Homo sapiens) (UniProt P29350); test: Inhibition of recombinant human SHP1 (243 to 541 residues) phosphatase activity expressed in Escherichia coli incubated for 20 mins by spectrophotometric analysis
[3] = target: T2, Receptor-type tyrosine-protein phosphatase C (Homo sapiens) (UniProt P08575); test: (§2) Inhibition of recombinant human CD45 (604 to 1304 residues) phosphatase activity expressed in baculovirus infected Sf9 incubated for 20 mins by spectrophotometric analysis
T2 sequence (whole entry): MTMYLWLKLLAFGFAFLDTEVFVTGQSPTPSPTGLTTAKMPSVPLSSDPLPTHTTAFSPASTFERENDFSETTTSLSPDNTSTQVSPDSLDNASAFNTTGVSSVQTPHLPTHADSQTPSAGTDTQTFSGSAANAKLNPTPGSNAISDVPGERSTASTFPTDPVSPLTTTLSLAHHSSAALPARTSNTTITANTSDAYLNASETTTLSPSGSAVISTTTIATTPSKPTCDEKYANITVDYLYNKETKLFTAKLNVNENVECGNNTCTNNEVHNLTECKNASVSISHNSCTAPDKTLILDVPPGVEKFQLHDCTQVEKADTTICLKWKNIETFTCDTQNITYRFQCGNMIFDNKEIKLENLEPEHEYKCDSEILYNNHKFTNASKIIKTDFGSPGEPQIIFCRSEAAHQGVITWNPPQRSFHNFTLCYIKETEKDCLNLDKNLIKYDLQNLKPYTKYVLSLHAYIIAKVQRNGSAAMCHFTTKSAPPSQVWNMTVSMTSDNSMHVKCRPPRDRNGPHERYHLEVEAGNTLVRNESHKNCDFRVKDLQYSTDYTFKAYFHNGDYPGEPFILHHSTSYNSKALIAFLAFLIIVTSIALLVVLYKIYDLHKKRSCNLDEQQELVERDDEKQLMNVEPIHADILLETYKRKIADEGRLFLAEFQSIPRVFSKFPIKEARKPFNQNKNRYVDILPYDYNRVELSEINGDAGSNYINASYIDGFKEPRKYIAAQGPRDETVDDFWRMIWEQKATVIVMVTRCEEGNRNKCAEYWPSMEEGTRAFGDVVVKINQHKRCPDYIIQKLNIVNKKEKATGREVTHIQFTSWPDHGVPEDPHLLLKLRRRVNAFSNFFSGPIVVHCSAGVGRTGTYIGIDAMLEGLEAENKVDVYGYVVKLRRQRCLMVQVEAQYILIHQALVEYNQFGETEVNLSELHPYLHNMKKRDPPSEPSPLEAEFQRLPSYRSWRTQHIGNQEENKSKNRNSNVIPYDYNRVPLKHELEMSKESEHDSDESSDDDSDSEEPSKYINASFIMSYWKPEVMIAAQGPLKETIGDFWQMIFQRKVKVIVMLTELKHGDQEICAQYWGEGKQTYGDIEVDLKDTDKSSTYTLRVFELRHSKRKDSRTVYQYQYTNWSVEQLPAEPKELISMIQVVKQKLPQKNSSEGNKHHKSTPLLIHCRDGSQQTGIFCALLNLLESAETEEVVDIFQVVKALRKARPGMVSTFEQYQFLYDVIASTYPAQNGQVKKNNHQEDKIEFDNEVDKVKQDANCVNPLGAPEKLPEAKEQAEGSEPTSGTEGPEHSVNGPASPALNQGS

[4] = target: Tyrosine-protein phosphatase non-receptor type 1 (Homo sapiens) (UniProt P18031); test: as §1; remark: listed apart in the source
[5] = target: Receptor-type tyrosine-protein phosphatase C (Homo sapiens) (UniProt P08575); test: as §2; remark: listed apart in the source

Measured: inhibition

O=C1/C(=N/Nc2ccc(S(=O)(=O)O)cc2)C(c2ccc([N+](=O)[O-])cc2)=NN1c1ccccc1
active: [1] | [2] | [3]

SODIUM ORTHOVANAD
active: [4] | [2] | [5]
